The target in assay [1] is human Melatonin receptor 1 (MT1) (Homo sapiens, UniProt P48039). Kind of assay: biochemical. The protocol: Method II MT1 GTPγ^35S-SPA Assay Test Validation Standards
Test compounds were synthesized in house. […] 2 μl of diluted compounds were transferred to Optic-assay-plates.
(Freshly add protease inhibitor cocktail tables from Roche). […] The protein concentration of the membrane was determined. The membranes were aliquoted and stored at −80° C.
• MAX response (100% effect) was determined as the effect of 3 nM of 2-lodomelatonin. • MIN response (0% effect) was determined as the effect of vehicle control. Description of Experimental Procedure
The final concentration of GTPγ^35S was 200 pM.

Chains of the proteins cited; added tags and fusions are not shown.
UniProt P48039, whole entry: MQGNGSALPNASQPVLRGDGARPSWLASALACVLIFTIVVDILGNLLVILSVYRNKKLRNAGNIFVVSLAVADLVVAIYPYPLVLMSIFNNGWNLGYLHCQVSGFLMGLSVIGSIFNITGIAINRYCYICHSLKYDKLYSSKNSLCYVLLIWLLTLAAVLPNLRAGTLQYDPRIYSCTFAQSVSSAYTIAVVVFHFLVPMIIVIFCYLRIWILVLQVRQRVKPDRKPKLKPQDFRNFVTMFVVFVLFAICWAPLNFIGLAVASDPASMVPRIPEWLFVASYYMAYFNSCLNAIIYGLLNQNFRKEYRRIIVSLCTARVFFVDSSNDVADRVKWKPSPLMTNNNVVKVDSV

The target in assay [2] is MT1 Receptor (Homo sapiens, UniProt P48039). Description: biochemical. The settings on record: MT1 Receptor Binding Ki (M).

On to `CCCNC(=O)c1nnc2c(-c3ccc(OC)cc3OC)c(F)ccc2c1N`, for which, in assay [1] (MT1 Receptor GTPgS EC50 (M)), the half-maximal effective concentration (EC50) (commonly the concentration that produces a half-maximal response) came out at 1.55e-08 M. For the same molecule, the maximum response (Emax) (in general, the greatest response seen or fitted, relative to the assay's reference) in assay [1] (read-out: MT1 Receptor GTPgS Emax) is 54%. Also, the affinity in assay [2] corresponds to a Ki of 9e-08 M.

The record behind these values is patent US7425556B2 (priority 2005, dated 2008).
